In article PMC12728655, “Engineering an Artificial Myxopyronin Derivative with Enhanced Metabolic Stability via Mutasynthesis” (JACS Au, 2025):

Test system: M. xanthus DK1622 CP-4^W S91A mutant
Test: Mutasynthon supplementation of producer strain
Settings: supplementation at the tested concentrations; MYX A production diminished completely

CCC/C(C)=C/C=C(\C)C(=O)Sc1ccccc1 [compound 48]
toxicity to the strain: exhibited toxicity to the strain
